Experimental data published in patent publication US20220107328A1, “METHODS OF TREATING LIVER DISEASES” (Camp4 Therapeutics Corporation, priority 2018, published 2022).

How the values were obtained:
PNPLA3 mRNA = assay: qRT-PCR of PNPLA3 mRNA in compound-treated primary human hepatocytes; settings: validation in human hepatocytes from a second donor
PNPLA3 expression = assay: RNA-seq of compound-treated primary human hepatocytes; assay type: cell-based
PNPLA5 expression = assay: RNA-seq of compound-treated primary human hepatocytes, PNPLA5; assay type: cell-based
Protocol: To identify small molecules that modulate PNPLA3, primary human hepatocytes were prepared as a monoculture, and at least one small molecule compound was applied to the cells.
RNA-seq was performed to determine the effects of the compounds on PNPLA3 expression in hepatocytes. Fold change was calculated by dividing the level of expression in the cell system that had been perturbed by the level of expression in an unperturbed system. Changes in expression having a p-value≤0.05 were considered significant.
TBK1, also known as the NF-κB-activating kinase, can mediate NF-κB activation in response to certain growth factors. ACVR1 is a member of the TGF-beta family subgroup of receptors and can activate SMAD transcriptional regulators upon ligand binding. […] Therefore, signaling proteins in the NF-κB pathway and ACVR1/SMAD pathway were targeted via siRNA to test their effect on PNPLA3.

Molecule	PNPLA3 expression (in words) (PNPLA3 mRNA)	PNPLA3 expression in the RNA-seq study (in words) (PNPLA3 expression)	PNPLA5 expression in the RNA-seq study (in words) (PNPLA5 expression)
C1=C/COCc2cc(ccc2OCCN2CCCC2)Nc2nccc(n2)-c2cccc(c2)COC/1 [Pacritinib]	substantial decrease in PNPLA3 expression		
BMP2 (protein, UniProt P12643 283-396, looked up) Bone morphogenetic protein 2: QAKHKQRKRLKSSCKRHPLYVDFSDVGWNDWIVAPPGYHAFYCHGECPFPLADHLNSTNHAIVQTLVNSVNSKIPKACCVPTELSAISMLYLDENEKVVLKNYQDMVVEGCGCR		best upregulators of PNPLA3 and PNPLA5	best upregulators of PNPLA3 and PNPLA5
